Literature values, collected in patent publication US12151062B2, “Compositions and devices to administer pharmaceutical compositions nasally” (BOARD OF REGENTS, THE UNIVERSITY OF TEXAS SYSTEM, priority 2016, dated 2024).
Where two headings read alike, the source gives them in different places.

Legend:
[1] = rats; for DTE: mucoadhesive nanoemulsion (0.5% chitosan) i.n.
[2] = mouse, in vivo, iv

| SMILES | brain uptake (drug accumulation in the brain) compared to i.n. solution alone ([1]; PLGA nanoparticles i.n.) [times] | drug accumulation in the brain compared to drug solution given intravenously ([1]; PLGA nanoparticles i.n.) [times] | DTE ([1]; i.v. control risperidone nanoemulsion) | DTE [1] | brain AUC compared to i.v. solution [2] | brain AUC values, SLNs intranasally vs intravenously [2] |
| --- | --- | --- | --- | --- | --- | --- |
| Cc1cc2c(s1)Nc1ccccc1N=C2N1CCN(C)CC1 [Olanzapine] | 10.86 | 6.35 | – | – | – | – |
| Cc1nc2n(c(=O)c1CCN1CCC(c3noc4cc(F)ccc34)CC1)CCCC2 [Risperidone] | – | – | 476 | DTE-476% | 10-fold | similar |
